Data on 26 molecules can be found in paper PMC7723054.

The chains are these.
T1: LIN28A (human?, UniProt Q9H9Z2 1-209)
T1 sequence: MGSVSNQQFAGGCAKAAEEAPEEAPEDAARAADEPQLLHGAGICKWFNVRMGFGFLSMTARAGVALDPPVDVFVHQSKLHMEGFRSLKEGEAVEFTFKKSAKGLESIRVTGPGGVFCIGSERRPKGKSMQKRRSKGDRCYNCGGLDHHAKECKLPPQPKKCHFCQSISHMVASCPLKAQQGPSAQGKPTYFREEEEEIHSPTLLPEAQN

T2: CIRBP (Homo sapiens, UniProt Q14011 1-172)
T2 sequence: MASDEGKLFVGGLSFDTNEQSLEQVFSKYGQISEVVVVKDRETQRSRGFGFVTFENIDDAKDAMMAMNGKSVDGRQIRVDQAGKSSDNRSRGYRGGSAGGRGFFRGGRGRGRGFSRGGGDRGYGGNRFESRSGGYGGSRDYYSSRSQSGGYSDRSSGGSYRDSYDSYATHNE

T3: DHX36 (Homo sapiens, UniProt Q9H2U1 1-1008)
T3 sequence: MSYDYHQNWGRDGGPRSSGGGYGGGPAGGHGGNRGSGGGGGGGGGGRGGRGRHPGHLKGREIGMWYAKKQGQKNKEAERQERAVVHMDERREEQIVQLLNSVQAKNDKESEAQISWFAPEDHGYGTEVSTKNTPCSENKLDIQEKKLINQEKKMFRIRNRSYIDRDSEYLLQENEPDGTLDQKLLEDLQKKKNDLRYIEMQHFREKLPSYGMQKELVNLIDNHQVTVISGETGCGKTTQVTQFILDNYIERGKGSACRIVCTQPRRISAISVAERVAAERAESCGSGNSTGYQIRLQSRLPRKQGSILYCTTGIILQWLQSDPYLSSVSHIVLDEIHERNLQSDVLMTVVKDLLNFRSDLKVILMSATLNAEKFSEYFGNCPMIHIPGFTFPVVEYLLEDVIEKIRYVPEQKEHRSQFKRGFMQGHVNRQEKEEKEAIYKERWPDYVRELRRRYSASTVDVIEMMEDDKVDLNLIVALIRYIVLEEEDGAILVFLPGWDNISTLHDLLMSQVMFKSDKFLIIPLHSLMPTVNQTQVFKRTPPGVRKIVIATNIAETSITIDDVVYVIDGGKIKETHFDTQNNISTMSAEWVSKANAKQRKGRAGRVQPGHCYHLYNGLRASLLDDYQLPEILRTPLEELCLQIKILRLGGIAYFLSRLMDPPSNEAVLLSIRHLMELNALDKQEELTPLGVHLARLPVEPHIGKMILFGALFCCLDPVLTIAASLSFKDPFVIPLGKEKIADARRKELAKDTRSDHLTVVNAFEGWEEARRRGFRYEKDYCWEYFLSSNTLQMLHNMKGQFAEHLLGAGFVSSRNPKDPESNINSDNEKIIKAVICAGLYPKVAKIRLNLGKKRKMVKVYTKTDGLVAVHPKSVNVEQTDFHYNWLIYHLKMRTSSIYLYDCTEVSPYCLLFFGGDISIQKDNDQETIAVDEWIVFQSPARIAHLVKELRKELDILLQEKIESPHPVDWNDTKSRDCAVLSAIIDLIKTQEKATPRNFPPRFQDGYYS

B1: hsa-mir-6802 (structured_RNA)
RNA: GGGAACCGCGGCCGUAUACGCUAAUUAAGGUGUACGAAGUUUCAGCUGAAGCCCCGAGAUGCCUCACGUCUUCAGCUGAAGCUUCGUGCAC
B2: hsa-mir-3119-1 (structured_RNA)
RNA: GGGAACACACGGGUCGACUAUCCGCUUGGGUGUACGAAGUUUCAGCUGGCAAAGGGGUAGCUAAACAAUCUAUGUCUUUGCCAGCUGAAGCUUCGUGCAC
B3: hsa-mir-6741 (structured_RNA)
RNA: GGGAGUAAAUCGGGAUUUAGCAGGUUGUGGUGUACGAAGUUUCAGCCCGUGCCCUGGCCACUCAUUCGGGCUGAAGCUUCGUGCAC
B4: hsa-mir-939 (structured_RNA)
RNA: GGGACAUAGGGAUCGCAUUCCGAUUAAUGGUGUACGAAGUUUCAGCGGGGGUGGCCGGGGCUGACCCUGCUGAAGCUUCGUGCAC
B5: hsa-mir-4651 (structured_RNA)
RNA: GGGAAAAGCACAGUGGGUUGCUAAUCUUGGUGUACGAAGUUUCAGCGGGCCCCAAGACUCGGGGUUUGCUGAAGCUUCGUGCAC
B6: hsa-mir-548l (structured_RNA)
RNA: GGGAAUAGAAGCGUUUAGACGAACUGCUGGUGUACGAAGUUUCAGCUGUCGUAGAAAGUAAUGGCAGCUGAAGCUUCGUGCAC
B7: hsa-mir-1273d (structured_RNA)
RNA: GGGACGUGACACAUGGAUGCAUUAACCUGGUGUACGAAGUUUCAGCCAGUGAGCCAAGAUCGUGCCACUGGCUGAAGCUUCGUGCAC
B8: hsa-mir-1302-4 (structured_RNA)
RNA: GGGCAGGCCGAGCUUUAUUAGGAUAACAGGUGUACGAAGUUUCAGCCCAUGCAACAUUUGGGCUGAAGCUUCGUGCAC
B9: hsa-mir-3662 (structured_RNA)
RNA: GGGACGCCUUCCACUCACAACUGUGCUAGGUGUACGAAGUUUCAGCUCUCAAUCCAUUCAUAUUGAAAGCUGAAGCUUCGUGCAC
B10: hsa-mir-4713 (structured_RNA)
RNA: GGGAAGGAUACAGGCAUAGCCUCGCAUAGGUGUACGAAGUUUCAGCCCCAUAAGGGUCGAAUGGGGCUGAAGCUUCGUGCAC
B11: hsa-mir-548w (structured_RNA)
RNA: GGGAAGGGAUAAGUAUCUCGCCAUUCCGGGUGUACGAAGUUUCAGCGCCUUUCAACAUAAUGGCGCUGAAGCUUCGUGCAC
B12: hsa-mir-6828 (structured_RNA)
RNA: GGGAACUCGGUAGGCUCGUGAAUCCAUCGGUGUACGAAGUUUCAGCCUGUGGUCUAACCUUUCCCAUCUGCUGAAGCUUCGUGCAC
B13: hsa-mir-3155a (structured_RNA)
RNA: GGGAAGGGACCCUCAAUGCCUACGAAGAGGUGUACGAAGUUUCAGCCUGGGGAGCCGGACAGCUCCCUUCCCAGGCUGAAGCUUCGUGCAC
B14: hsa-mir-6080 (structured_RNA)
RNA: GGGAACACCGCGCUAGGACAUGGUAACCGGUGUACGAAGUUUCAGCGGGGCUGGUUGUCUAGCUGAAGCUUCGUGCAC
B15: hsa-mir-4745 (structured_RNA)
RNA: GGGAAACGUAAUUGCCGGUAGGAUGGUCGGUGUACGAAGUUUCAGCGACGGCGCCCGCCCUGGCCCUGGCGCUGAAGCUUCGUGCAC
B16: hsa-mir-6750 (structured_RNA)
RNA: GGGAAAUAUCCAACGACCCGUCCCAUAGGGUGUACGAAGUUUCAGCGCUGCUGCCCCAGAGGCCCAGCAGGUGUCCAGAACGCUGAAGCUUCGUGCAC
B17: hsa-mir-5704 (structured_RNA)
RNA: GGGAAAUAAUGGUUGGGCUCUCCACCUGGGUGUACGAAGUUUCAGCAUGCUAAGUCCAUGGGCAAACAUGCUGAAGCUUCGUGCAC
B18: hsa-mir-2117 (structured_RNA)
RNA: GGGAACCACUCGCUUUAGAGCAUCCUACGGUGUACGAAGUUUCAGCAACAGCAGGAUUGGCUGUAGCUGUUGCUGAAGCUUCGUGCAC
B19: hsa-mir-3143 (structured_RNA)
RNA: GGGAAUCGUCUAGGGCCAAUACGUCAAUGGUGUACGAAGUUUCAGCUUCGCGGUUGGGCUGCUGAAGCUUCGUGCAC
B20: hsa-mir-4434 (structured_RNA)
RNA: GGGAUCGGAGACAUGCGCGAAGAUACCCGGUGUACGAAGUUUCAGCAGAACUUUGGUUUUGCUGAAGCUUCGUGCAC
B21: hsa-mir-182 (structured_RNA)
RNA: GGGAACUUUACCUGGACUGAUCCGGUGAGGUGUACGAAGUUUCAGCCACACUGGUGAGGUAACAGGAUCCGGUGGCUGAAGCUUCGUGCAC
B22: hsa-mir-4448 (structured_RNA)
RNA: GGGACUCCCACACUGAGUCGUCGUGAUUGGUGUACGAAGUUUCAGCAGCCUUCUAUUAUGCCCAGACAGGGCCACCAGAGGGCUGCUGAAGCUUCGUGCAC
B23: hsa-mir-654 (structured_RNA)
RNA: GGGAAGAACGUCAUGUUGUCGAGACUCCGGUGUACGAAGUUUCAGCCAUGUGCUGAGUUCGUGCCAUAUGGCUGAAGCUUCGUGCAC
B24: hsa-mir-1243 (structured_RNA)
RNA: GGGAAGUGGGAAUUAGAAUCGGUACUCCGGUGUACGAAGUUUCAGCAGUGAAAUAAAGGUCCAUCUCCUGCCUAUUUAUUACUUUGCUGCUGAAGCUUCGUGCAC
B25: hsa-mir-5095 (structured_RNA)
RNA: GGGACAUAGGUUUAGACUGUAGUGGCAGGGUGUACGAAGUUUCAGCCGCGCCCGGCCUAACUUUUAAGAAACGUCGGCCCGGGAGCGGCUGAAGCUUCGUGCAC
B26: hsa-mir-6814 (structured_RNA)
RNA: GGGAACCGCCGAAACUAGCUAUGUUUGUGGUGUACGAAGUUUCAGCUGCCACCCAGCCCUGCAGAGCCCCUGACUCGCUGAAGCUUCGUGCAC

The other results are listed elsewhere or left out.

One experiment addresses T1, LIN28A. Briefly: FOREST: bead pull-down of RNA structure library v1, barcode microarray; U1A/LIN28A: 20 mM HEPES pH 7.5, 80 mM KCl, 20 mM NaCl, 10% glycerol, 2 mM DTT, 0.1 ug/uL BSA, 4 C; BG4/CIRBP/DHX36: 10 mM Tris-HCl pH 7.5, 100 mM KCl (or LiCl),; high values mean tight binding.
Molecule B1 displayed a binding signal of -0.203 z-score.

Consider B2, for which the binding signal is -0.2 z-score.

In turn, B3 yielded a binding signal of -0.194 z-score.

B4: the binding signal was -0.231 z-score.

For the molecule B5, the binding signal was -0.249 z-score.

The molecule B6 displayed a binding signal of -0.238 z-score.

Molecule B7 displayed a binding signal of -0.213 z-score.

On to B8, for which the binding signal is -0.229 z-score.

B9: the binding signal was -0.25 z-score.

Molecule B10 returned a binding signal of -0.2 z-score.

B11 had a binding signal of -0.219 z-score.

As to B12, the binding signal was -0.228 z-score.

For B13, the binding signal was -0.244 z-score.

The molecule B14 came in with a binding signal of -0.193 z-score.

Regarding B15, the binding signal is -0.205 z-score.

Consider B16, for which the binding signal was -0.213 z-score.

Consider B17, for which the binding signal is -0.199 z-score.

Molecule B18 displayed a binding signal of -0.208 z-score.

Take B19: the binding signal was -0.233 z-score.

For B20, the binding signal was -0.199 z-score.

As to B21, the binding signal is -0.199 z-score.

Regarding B22, the binding signal is -0.219 z-score.

B23 came in with a binding signal of -0.219 z-score.

In the case of B24, the binding signal is -0.213 z-score.

B25 gave a binding signal of -0.232 z-score.

Molecule B26 returned a binding signal of -0.218 z-score.

For the next experiment, the target named is T2, CIRBP. Described as above.
In turn, B1 gave a binding signal of -0.621 z-score.

For the molecule B2, the binding signal was -1.53 z-score.

Take B3: the binding signal is -0.146 z-score.

The molecule B4 displayed a binding signal of -0.85 z-score.

Consider B5, for which the binding signal came out at 0.732 z-score.

As for B6, the binding signal was -0.729 z-score.

With B7, the binding signal was -0.253 z-score.

The molecule B8 came in with a binding signal of -0.187 z-score.

Turning to B9, the binding signal was -0.231 z-score.

B10: the binding signal was -0.426 z-score.

Regarding B11, the binding signal was -1.17 z-score.

Consider B12, for which the binding signal stood at 0.238 z-score.

The molecule B13 gave a binding signal of -0.12 z-score.

Regarding B14, the binding signal is -0.359 z-score.

In turn, B15 registered a binding signal of 0.0677 z-score.

In turn, B16 had a binding signal of -1.59 z-score.

As to B17, the binding signal came out at 0.414 z-score.

Take B18: the binding signal is -0.12 z-score.

Take B19: the binding signal was -0.224 z-score.

B20 came in with a binding signal of -1.65 z-score.

With B21, the binding signal was -1.17 z-score.

On to B22, for which the binding signal was found to be 0.0457 z-score.

Molecule B23 yielded a binding signal of -1.1 z-score.

Molecule B24 registered a binding signal of -1.76 z-score.

For B25, the binding signal was 0.366 z-score.

Molecule B26 returned a binding signal of -0.133 z-score.

Another experiment deals with T3, DHX36. The experiment is described as above.
Take B1: the binding signal is -0.594 z-score.

In the case of B2, the binding signal was -0.847 z-score.

In the case of B3, the binding signal is 0.65 z-score.

As to B4, the binding signal is 2.27 z-score.

As to B5, the binding signal was determined as 0.48 z-score.

As to B6, the binding signal is -0.37 z-score.

The molecule B7 registered a binding signal of -0.969 z-score.

Turning to B8, the binding signal was -0.188 z-score.

The molecule B9 displayed a binding signal of -0.0393 z-score.

Molecule B10 showed a binding signal of -1.19 z-score.

B11 came in with a binding signal of -0.901 z-score.

B12 displayed a binding signal of -1.04 z-score.

As to B13, the binding signal was 0.137 z-score.

Consider B14, for which the binding signal was -0.874 z-score.

B15: the binding signal was -0.0813 z-score.

B16 displayed a binding signal of -0.812 z-score.

For B17, the binding signal is -0.599 z-score.

For the molecule B18, the binding signal is -0.0851 z-score.

Consider B19, for which the binding signal is -0.0784 z-score.

B20 registered a binding signal of -1.4 z-score.

Molecule B21 gave a binding signal of -1.09 z-score.

B22 yielded a binding signal of -0.47 z-score.

As for B23, the binding signal is 0.722 z-score.

Molecule B24 returned a binding signal of -0.612 z-score.

Turning to B25, the binding signal was 0.533 z-score.

The molecule B26 yielded a binding signal of 0.927 z-score.
